## AlphaSeq binding of Ab-14 light chain variants to a spike HR2 peptide

The measurements come from Li et al. 2023 (doi:10.1038/s41467-023-39022-2) through the FLAb antibody collection.

Target: peptide PDVDLGDISGINAS, taken from heptad repeat 2 (HR2) of SARS-CoV-2 spike.

Parent scFv Ab-14: VH joined to VL by three GGGGS repeats. Changes lie in the light chain CDRs alone.
VH: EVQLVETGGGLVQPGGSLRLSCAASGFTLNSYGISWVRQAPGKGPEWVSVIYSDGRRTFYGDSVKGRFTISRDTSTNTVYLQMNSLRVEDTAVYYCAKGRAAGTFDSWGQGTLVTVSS
VL: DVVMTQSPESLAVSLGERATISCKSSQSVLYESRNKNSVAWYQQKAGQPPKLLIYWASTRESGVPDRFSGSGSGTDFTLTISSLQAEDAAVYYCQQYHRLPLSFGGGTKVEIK

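This is the validation round: designs drawn from the data on random variants, tested in the same kind of assay. Group labels follow the data file (En: ensemble of fine-tuned language models; GP: Gaussian process model; HC: hill climbing; Gen: genetic algorithm; Gibbs: Gibbs sampling; a sequence that several methods proposed may carry one label only). In AlphaSeq, yeast of one mating type display the scFv and yeast of the other type display the target. The frequency of each diploid, read from paired DNA barcodes, reflects how well the two displayed proteins bind. A regression on co-assayed BCL2-family reference pairs converts the normalised counts of each replicate to an apparent Kd. Mating was done six times.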

Variants are written as CDR1, CDR2 and CDR3 of the light chain (limits as in the source). Parent: KSSQSVLYESRNKNSVA, WASTRES, QQYHRLPLS. Variants here have more than six changes. Values are apparent Kd, the geometric mean of the replicates that gave a signal; lower means stronger binding. Values of this round are not directly comparable with the first-round values of the same sequences. Nonspecific signal, from three strains lacking the peptide, appeared in 4% of pairings of all light chain designs, centred on 430 nM (5% of these signals below 38 nM); values are not corrected for it. The authors averaged sequences with at least three values out of six and counted those with two or fewer as poor binders. The parent sequence was in this pool as ten entries: three were never detected, three once, and four in most replicates, with averages from 2.2 nM to 240 nM.

- QLDWYNTTATASANNVA | DVAQRMN | QQYMRLPLM [En_Gibbs] -> 1.1 nM (6 of 6 replicates)
- KLSQSFLMESMNKNSVA | EASQRIW | QQYHRLPLS [GP_Gibbs] -> 1.7 nM (6 of 6 replicates)
- HMSMLTMMGMRQRNSVA | QMTMREN | QQYDRLPLA [En_Gen] -> 2.5 nM (6 of 6 replicates)
- MISQLYNMGSFAINSVA | QASERSE | QQYDRLPLM [En_Gen] -> 17 nM (6 of 6 replicates)
- KIGMTLNQLMHQKNNVA | DLVQREN | QQYHRLPLS [En_Gen] -> 40 nM (6 of 6 replicates)
- MVNGIMDHLSKQTNNVA | ETVTREE | QQYDRLPLS [En_Gen] -> 23 nM (6 of 6 replicates)
- IMSESQERDASRLNNIA | DDYTRAT | QQYARLPLS [En_Gibbs] -> 3.9 nM (6 of 6 replicates)
- KISQMARVGSTHSNSIA | EEATRSD | QQYHRLPLS [En_Gen] -> 5.0 nM (6 of 6 replicates)
- HFSQVTMYGSWAKNSVA | QTSTREE | QQYDRLPLS [En_HC] -> 8.0 nM (6 of 6 replicates)
- HLGLAQMLEEYVRNSVA | NNSTREK | QQYDRLPLS [En_Gen] -> 1.1 µM (2 of 6 replicates)
- SMAWQQGGYNQQEKAIA | EAATRTQ | QQYFRLPLT [En_Gibbs] -> 2.0 nM (6 of 6 replicates)
- MISGSVMSESRLKNSVA | QTTTRES | QQYDRFPLS [En_HC] -> 40 nM (6 of 6 replicates)
- KISQMVTYESTWHGAIA | QTSERES | QQYHRLPFS [En_HC] -> 5.2 nM (6 of 6 replicates)
- KLSQSDNYESRNHNSVA | HASCRCS | QQYHRLPLS [GP_Gibbs] -> 9.2 nM (6 of 6 replicates)
- TISQITSLFSQTINNVA | EVTTREE | QQYDRLPLS [En_Gen] -> 11 nM (6 of 6 replicates)
- NIYQAMHTLMQVKNNIA | DVTNRNQ | QQYHRLPLS [En_Gen] -> 2.2 nM (6 of 6 replicates)
- NIYQAMHTLSQMKDNVA | DVNERGT | QQYFRLPLS [En_Gen] -> 470 pM (6 of 6 replicates)
- KSSISQDYEDRNQNSVA | SASQREH | QQYHRLPLS [GP_Gibbs] -> 4.1 nM (6 of 6 replicates)
- KCPQSVPQESRNKNSVA | NASQREQ | QQYHRLPLS [GP_Gibbs] -> 5.9 nM (6 of 6 replicates)
- KVEQSNDYESRNVNSVA | NASQRLK | QQYHRLPLS [GP_Gibbs] -> 850 pM (6 of 6 replicates)
- MISQIYNMGQFAINSVA | QASIRNA | QQYDRLPLT [En_Gen] -> 44 nM (6 of 6 replicates)
- NIRGVEFESAMMGNAVA | GVSLVEA | QQYFRLPLH [En_Gibbs] -> 16 nM (6 of 6 replicates)
- KLSVSTSYLSVNKNSVA | EMSTRGS | QQYDRLPLS [En_HC] -> 8.4 nM (6 of 6 replicates)
- KISSMVRVGQTHSNSIA | EEAKRAD | QQYHRLPLA [En_Gen] -> 49 nM (2 of 6 replicates)
- KLMDNPWVEDKYRNNIA | DIETKAI | QHYSRLPLL [En_Gibbs] -> 8.8 nM (6 of 6 replicates)
- KISCSSLYDDANKNSVA | NASTRLS | QQYHRLPLS [GP_Gibbs] -> 2.0 nM (6 of 6 replicates)
- HISESMYYQSRMKNNIA | EMSTRER | QHYHRLPLS [En_HC] -> 14 nM (6 of 6 replicates)
- KLQYSNLYGSRNKNSVA | NASTRLQ | QQYHRLPLS [GP_Gibbs] -> 5.0 nM (6 of 6 replicates)
- VLMGQGADSIQHANSIA | NVDLVDM | QQYAHLPLS [En_Gibbs] -> 580 nM (3 of 6 replicates)
- KISQMYRYEQQNHSSIA | EANTREQ | QSYHRLPLS [En_HC] -> 15 µM (4 of 6 replicates)
- KISQLVRVGSTHKNSIA | EEATRAD | QQYHRLPLA [En_Gen] -> 9.2 nM (6 of 6 replicates)
- HMSALTLQGMRQRNSVA | QMTTREN | QQYDHLPLA [En_Gen] -> 6.1 nM (6 of 6 replicates)
- KITSHIREGTADNNAMA | NADVSNE | QQYSRLPLF [En_Gibbs] -> 4.5 nM (6 of 6 replicates)
- KVSEFMKGLMMRTDSIA | DNTTREN | QQYDRLPLS [En_Gen] -> 140 nM (3 of 6 replicates)
- QIGMLLNFESKIVNNVA | QMETRVE | QQYDRLPLS [En_Gen] -> 1.9 nM (6 of 6 replicates)
- MISQVMNTLTREGNNVA | DLQERER | QQYFRLPLS [En_Gen] -> 160 nM (6 of 6 replicates)
- ALELFEYQQMKDINSIA | NTEYKTN | QQYVRLPFS [En_Gibbs] -> 2.8 nM (6 of 6 replicates)
- MISQSFLIGMKAKNSVA | QTSTREE | QQYDRLPLS [En_HC] -> 1.8 nM (6 of 6 replicates)

Excerpt, the first 3 entries:

CDR-L1,CDR-L2,CDR-L3,group,Kd (apparent),replicates with signal
QLDWYNTTATASANNVA,DVAQRMN,QQYMRLPLM,En_Gibbs,1.1 nM,6 of 6
KLSQSFLMESMNKNSVA,EASQRIW,QQYHRLPLS,GP_Gibbs,1.7 nM,6 of 6
HMSMLTMMGMRQRNSVA,QMTMREN,QQYDRLPLA,En_Gen,2.5 nM,6 of 6